For this test, the system named is Human immunodeficiency virus 1. Nature of the test: Selectivity index, ratio of IC50 for inhibition of HIV1 integrase to IC50 for inhibition of RNH activity of recombinant HIV1 reverse transcriptase RNase H.

For the compound `O=c1[nH]c2scc(-c3ccc(Cl)cc3)c2c(=O)n1O`, the Ratio IC50 came to 53.

These data come from ChEMBL document CHEMBL4130495, “Design, synthesis and biological evaluations of N-Hydroxy thienopyrimidine-2,4-diones as inhibitors of HIV reverse transcriptase-associated RNase H” (Eur J Med Chem, 2017).
